Measurements published in patent US20220016052A1, “METHODS FOR TREATING CANCER IN MODELS HARBORING ESR1 MUTATIONS” (Radius Pharmaceuticals, Inc., priority 2018, published 2022).
Where a name gives a salt, the structure may show the parent alone.

Assays:
[1] = tested on: ST941-HI PDX model harboring an ESR1:Y537S mutation; assay: tumor growth in ST941-HI PDX model (FIGS. 6A-6B, 9A); set-up: species or system mice; conditions: ST941-HI PDX in vivo, elacestrant 10, 30, 60 mg/kg, fulvestrant 3 mg/dose
[2] = tested on: ST941-HI PDX cell line; assay: in vitro activity in ST941-HI cell line derived from PDX (FIGS. 8A-8B); assay type: cell-based; conditions: Y537S
Protocol: (§1) At the end of treatment, cells were lysed with the lysis buffer from the 1-step Cells-to-Ct kit and the lysates were processed according to the manufacturer's instructions. qPCR was performed using the 1-step master mix and TaqMan™ probes (Applied Biosystems). The Ct values were analyzed to assess relative changes in expression of PgR (progesterone receptor) mRNA, with GAPDH as an internal control, using the 2-ΔΔCT method.
Referring to FIGS. 8A-8B, the evaluation of elacestrant and fulvestrant and their in vitro respective activities are provided. In FIG. 8A, in vitro cell viability (% of control) is provided with respect to Log[Concentration (μm)] for a ST941-HI PDX cell line. In FIG. 8B, fold change over vehicle control of progesterone receptor (PgR) mRNA levels is plotted with respect to the concentration of elacestrant (0, 10, 100, and 1000 nM) and fulvestrant (0, 10, 100, and 1000 nM) used in treating in vitro ST941-HI cell line derived from PDX.

[3] = tested on: ER / PgR, TFF1, GREB1 in WHIM20 PDX xenograft with an ESR1:Y537S^hom mutation; assay: ER degradation and ER signaling in WHIM20 PDX model (FIGS. 10B-10E); assay type: in vivo, mice
Protocol: End of study tumors were pulverized with the cryoPREP™ Impactor (Covaris) and total RNA was extracted with the RNeasy mini kit (Qiagen). qPCR was performed using the Taqman Fast Virus 1-Step Master Mix and TaqMan™ probes (Applied Biosystems) The Ct values were analyzed to assess relative changes in expression of PgR (progesterone receptor) mRNA, with GAPDH as an internal control, using the 2-ΔΔCT method.
Cells or tumors were harvested post-dosing and protein expression analyzed using standard practice and antibodies as follows: ERa, PR, (Cell Signaling Technologies, Cat#13258; #3153) and Vinculin: Sigma-Aldrich, #v9131). Protein expression was quantified using the AzureSpot software and normalized to vinculin expression.

[4] = tested on: Y537S clone 1, Y537S clone 2, D538G clone 1, D538G clone 2, and S463P clone 1 cancer cell lines; assay: proliferation in in vitro models harboring ESR1 mutations (FIG. 1); assay type: cell-based; conditions: elacestrant at 100 nM, in vitro ESR1 mutant clones
[5] = tested on: ER signaling (PgR, GREB1, TFF1) in tumor cell models having wild type, S463P, D538G, and Y537S mutations; assay: ER signaling in in vitro models harboring ESR1 mutations, RT-qPCR (FIGS. 3A-3C); assay type: cell-based; conditions: 10, 100, and 1000 nM
Protocol: as §1

[6] = tested on: tumors expressing a mutant form of ERα, namely Y537S ERα; assay: tumor growth in tumors expressing Y537S ERα; assay type: in vivo
[7] = tested on: WHIM20 PDX xenograft with an ESR1:Y537S^hom mutation; assay: tumor growth in WHIM20 PDX xenograft (FIG. 10A); conditions: additional oncogenic mutations, elacestrant 30, 60 mg/kg, fulvestrant 3 mg/dose

Row | SMILES | tumor growth inhibition [1] | in vitro efficacy (cell viability, PgR mRNA) [2] | ER degradation [3] | ER signaling [3] | proliferation [4] | proliferation markers (PgR, GREB1, TFF1 fold change relative to control) [5] | tumor growth inhibition ([1]; dihydrochloride) | tumor growth inhibition ([1]; listed as Elacestrant, dihydrochloride) | tumor growth [6] | efficacy (tumor volumes over time) [7]
1 | C[C@]12CC[C@@H]3c4ccc(O)cc4C[C@@H](CCCCCCCCC[S+]([O-])CCCC(F)(F)C(F)(F)F)[C@H]3[C@@H]1CC[C@@H]2O (stereo partly shown) [fulvestrant, reference compound] | lack of activity in vivo | efficacious in vitro | degrading ER | inhibiting ER signaling |  |  |  |  |  | 
2 | CCNCCc1ccc(CN(CC)c2cc(OC)ccc2[C@@H]2CCc3cc(O)ccc3C2)cc1 [elacestrant, (6R)-6-(2-(N-(4-(2-(ethylamino)ethyl)benzyl)-N-ethylamino)-4-methoxyphenyl)-5,6,7,8-tetrahydronaphthalen-2-ol dihydrochloride] |  | efficacious | degrading ER | inhibiting ER signaling | inhibit proliferation | decrease of proliferation markers | greater tumor growth inhibition than comparator SERDs | efficacious | inhibit the growth of tumors | partial efficacy
